Target: T1, rat OAT3 (rk1411) (Rattus norvegicus, UniProt Q9R1U7)
T1 construct: cRNA (RNA complementary to cDNA) was prepared in vitro from the plasmid carrying the clone (rk1411); expressed in transfected cells; host or cells: Xenopus oocytes injected with rk1411 cRNA
T1 sequence (Q9R1U7 1-536): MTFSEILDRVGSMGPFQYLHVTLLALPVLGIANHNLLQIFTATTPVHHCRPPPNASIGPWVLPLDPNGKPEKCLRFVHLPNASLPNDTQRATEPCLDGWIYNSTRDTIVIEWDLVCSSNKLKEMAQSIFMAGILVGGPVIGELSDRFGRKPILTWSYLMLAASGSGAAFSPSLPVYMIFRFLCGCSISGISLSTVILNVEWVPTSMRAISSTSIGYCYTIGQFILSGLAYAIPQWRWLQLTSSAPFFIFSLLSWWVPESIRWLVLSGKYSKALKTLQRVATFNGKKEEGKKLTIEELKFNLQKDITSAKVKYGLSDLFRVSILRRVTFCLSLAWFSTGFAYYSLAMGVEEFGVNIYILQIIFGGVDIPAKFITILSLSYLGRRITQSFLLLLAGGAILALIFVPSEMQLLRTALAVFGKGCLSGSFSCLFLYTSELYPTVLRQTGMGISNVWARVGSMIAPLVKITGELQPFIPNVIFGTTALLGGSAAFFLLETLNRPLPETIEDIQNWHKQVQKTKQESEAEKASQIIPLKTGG
Assay: Inhibition of 3H-estrone sulfate uptake in oocyte injected with rk1411 cRNA
Assay type: cell-based
Details: 1 mM unlabeled compound; Xenopus oocyte; FIG. 3

C=C[C@H]1C[N@@]2CC[C@H]1C[C@@H]2[C@@H](O)c1ccnc2ccc(OC)cc12 [quinidine]
inhibition of 3H-estrone sulfate transport with rk1411: never exerted any such inhibitory action
